Read-outs that look alike come from different tables or passages of the source.
Columns and labels:
[1] = target: T1, Recombinant Human TMPRSS2 (Homo sapiens, UniProt O15393); test: biochemical
Method: Buffer conditions were tested and optimized to include: 50 mM Tris pH 8, 150 mM NaCl and 0.01% Tween20.
Following 1 h of incubation at RT, detection was done using the PHERAstar with 340 nm excitation and 440 nm emission (Table 1).
To determine compound activity in the assay, the concentration–response data for each sample was plotted and modeled by a four-parameter logistic fit yielding IC50 and maximal response values. […] Data normalization, visualization, and curve fitting were performed using Prism (GraphPad, San Diego, CA).

Chains of the proteins cited; added tags and fusions are not shown. Residues count along the entry.
UniProt O15393, 106-492: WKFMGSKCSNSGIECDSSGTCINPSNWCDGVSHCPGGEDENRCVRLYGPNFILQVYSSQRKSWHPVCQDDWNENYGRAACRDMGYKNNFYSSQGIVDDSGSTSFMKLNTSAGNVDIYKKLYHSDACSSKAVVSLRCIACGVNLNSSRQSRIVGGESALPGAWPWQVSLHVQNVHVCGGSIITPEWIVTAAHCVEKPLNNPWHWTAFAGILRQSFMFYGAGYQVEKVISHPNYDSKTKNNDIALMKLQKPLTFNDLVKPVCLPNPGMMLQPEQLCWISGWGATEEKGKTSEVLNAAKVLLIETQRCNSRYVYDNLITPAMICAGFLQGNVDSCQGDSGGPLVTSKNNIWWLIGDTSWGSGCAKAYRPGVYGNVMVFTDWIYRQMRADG

[2] = target: T1, Recombinant Human TMPRSS2; test: biochemical; remark: listed apart in the source

For `NCCc1ccc(S(=O)(=O)F)cc1` [4-(2-aminoethyl)benzenesulfonyl fluoride], the AC50 [1] was 2.95 µM and the AC50 [2] was 23.4 µM.
For `O=S(=O)(F)Cc1ccccc1` [Phenylmethanesulfonyl fluoride (PMSF), Phenylmethanesulfonyl fluoride], the AC50 [1] was 4.68 µM and the AC50 [2] was 87.9 µM.

Reference: paper doi:10.1101/2022.02.04.479134, “A Suite of TMPRSS2 Assays for Screening Drug Repurposing Candidates as Potential Treatments of COVID-19” (bioRxiv, 2022)
